Data taken from ChEMBL document CHEMBL1130474, “Conformationally restricted arginine analogues as inhibitors of human nitric oxide synthase” (Bioorg Med Chem Lett, 1997).

Sequences of proteins named here, by UniProt entry; tags and fusion partners are left off.
UniProt P29475, whole entry: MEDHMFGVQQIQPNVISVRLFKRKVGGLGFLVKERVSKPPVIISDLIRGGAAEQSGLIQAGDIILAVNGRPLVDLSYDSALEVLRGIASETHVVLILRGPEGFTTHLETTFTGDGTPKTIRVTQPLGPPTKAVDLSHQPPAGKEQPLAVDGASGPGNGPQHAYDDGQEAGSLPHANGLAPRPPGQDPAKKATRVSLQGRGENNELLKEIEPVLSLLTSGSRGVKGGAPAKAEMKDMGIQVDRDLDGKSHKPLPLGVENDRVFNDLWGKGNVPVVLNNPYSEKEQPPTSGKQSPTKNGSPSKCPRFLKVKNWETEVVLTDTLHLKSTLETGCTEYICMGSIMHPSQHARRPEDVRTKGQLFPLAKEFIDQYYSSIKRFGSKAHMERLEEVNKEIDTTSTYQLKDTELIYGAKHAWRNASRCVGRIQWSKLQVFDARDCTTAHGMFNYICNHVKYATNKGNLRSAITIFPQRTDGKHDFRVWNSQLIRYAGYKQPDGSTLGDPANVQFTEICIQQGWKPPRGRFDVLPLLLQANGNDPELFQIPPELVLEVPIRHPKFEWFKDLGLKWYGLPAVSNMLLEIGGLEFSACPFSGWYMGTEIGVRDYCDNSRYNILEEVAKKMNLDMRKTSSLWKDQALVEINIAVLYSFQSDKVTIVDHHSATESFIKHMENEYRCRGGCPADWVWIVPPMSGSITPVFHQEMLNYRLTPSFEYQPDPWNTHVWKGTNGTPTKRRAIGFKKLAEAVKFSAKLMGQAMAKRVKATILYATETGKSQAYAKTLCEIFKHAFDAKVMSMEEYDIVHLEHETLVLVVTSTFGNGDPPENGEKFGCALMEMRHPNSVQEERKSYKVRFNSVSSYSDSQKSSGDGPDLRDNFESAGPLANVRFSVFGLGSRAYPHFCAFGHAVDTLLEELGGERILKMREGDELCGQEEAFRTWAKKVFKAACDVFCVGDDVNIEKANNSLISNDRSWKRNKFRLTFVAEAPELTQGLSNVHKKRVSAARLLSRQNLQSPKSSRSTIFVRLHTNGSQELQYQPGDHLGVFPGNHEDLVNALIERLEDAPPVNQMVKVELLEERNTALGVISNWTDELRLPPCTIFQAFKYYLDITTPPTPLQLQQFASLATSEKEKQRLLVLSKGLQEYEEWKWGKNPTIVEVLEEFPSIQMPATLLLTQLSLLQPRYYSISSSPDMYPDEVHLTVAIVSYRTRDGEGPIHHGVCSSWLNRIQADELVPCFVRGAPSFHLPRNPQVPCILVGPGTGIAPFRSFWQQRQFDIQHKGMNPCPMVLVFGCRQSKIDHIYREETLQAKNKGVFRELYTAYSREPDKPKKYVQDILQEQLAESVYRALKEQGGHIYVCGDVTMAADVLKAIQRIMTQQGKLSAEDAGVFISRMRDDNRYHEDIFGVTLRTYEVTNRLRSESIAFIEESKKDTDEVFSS

Target: Nitric oxide synthase 1 (Homo sapiens, UniProt P29475)
Assay: Inhibitory constant for the inhibition of human Neuronal nitric oxide synthase

Ki: 230 nM
SMILES: CC(=N)NCCC[C@H](N)C(=O)O [L-NIO]
